Ab-14 light chain CDR variants: yeast mating affinities

Source: Engelhart et al. 2022 (doi:10.1038/s41597-022-01779-4), MIT Lincoln Laboratory and A-Alpha Bio; data file from the FLAb repository.

Target: peptide PDVDLGDISGINAS, taken from heptad repeat 2 (HR2) of SARS-CoV-2 spike.

The variants keep the heavy chain, the linker and the frameworks of Ab-14 (scFv order VH, three GGGGS repeats, VL).
VH: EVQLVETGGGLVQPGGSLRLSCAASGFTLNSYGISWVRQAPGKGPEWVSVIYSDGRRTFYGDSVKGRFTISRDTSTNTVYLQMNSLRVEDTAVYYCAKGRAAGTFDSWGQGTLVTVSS
VL: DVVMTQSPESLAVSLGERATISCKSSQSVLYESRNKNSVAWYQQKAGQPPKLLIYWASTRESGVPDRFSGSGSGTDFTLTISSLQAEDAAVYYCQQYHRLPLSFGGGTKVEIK

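In library AAYL50, one, two or three CDR residues were substituted; doubles and triples were drawn at random. The scFvs were displayed on barcoded MATa yeast, the peptide on MATalpha yeast. Pairs that bind mate more often; barcode pairs of the diploids are counted by sequencing. Each replicate has its own calibration line, from reference interactions of the BCL2 family. There are three technical replicates.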

Variants are written as CDR1, CDR2 and CDR3 of the light chain (limits as in the source). Parent: KSSQSVLYESRNKNSVA, WASTRES, QQYHRLPLS. Scale: log10 of Kd in nM, estimated from mating counts; low values are strong binders. Where no diploid with the target was found in that replicate, the entry reads "nd": below detection, most likely a poor binder, though not proof of it.

| # | CDR-L1 | CDR-L2 | CDR-L3 | log10 Kd, replicates | control signals |
|---|---|---|---|---|---|
| 1 | KSSQSVLYESRNKNSIA | HASTREV | QQYHRLPLS | 0.40 / 0.70 / 0.60 | 0 of 9 |
| 2 | KSSQSVLYESRNKNSVA | GASTRES | QTYHRLPLS | -0.62 / -0.20 / -0.44 | 6 of 9 (4.41) |
| 3 | KSSQSVLYESRNKNSVA | WASARES | QQYHRDPLS | nd / nd / nd | 0 of 9 |
| 4 | KSSQSVLYESENKNSVM | WFSTRES | QQYHRLPLS | nd / 3.53 / nd | 3 of 9 (3.59) |
| 5 | KSSQEVLYESRNKNSTA | WASTRQS | QQYHRLPLS | nd / nd / 5.46 | 0 of 9 |
| 6 | KSSQTVLYESQNKNSVA | WASTRES | QQYHRLPLS | 0.38 / 0.82 / 0.72 | 1 of 9 (4.47) |
| 7 | KSSQSVLYESRNKNSVA | WASIKEQ | QQYHRLPLS | nd / nd / 4.53 | 1 of 9 (5.67) |
| 8 | KSSQSVLYESRNKNSVA | CAPTRES | QQYHRVPLS | nd / 3.58 / 4.26 | 1 of 9 (4.46) |
| 9 | KSSPSVLYESRNKNIVA | CASTRES | QQYHRLPLS | nd / nd / nd | 0 of 9 |
| 10 | KSSQSVLYEIRGKNSVA | WASTRES | QQYHRLPLP | nd / 3.33 / 2.98 | 1 of 9 (4.06) |
| 11 | KSSRSVLYESRVKNSVA | WASTRES | QQYHRLPLS | nd / nd / nd | 0 of 9 |
| 12 | KSSQSVLYKSRNNNSVA | HASTRES | QQYHRLPLS | 0.68 / 0.89 / 0.73 | 1 of 9 (4.18) |
| 13 | KSSGSVLYESENKNSVA | WASTRES | QQYHRIPLS | 0.65 / 0.82 / 0.81 | 1 of 9 (3.22) |
| 14 | KSSQEVLYESRNKNKVA | WASTTES | QQYHRLPLS | nd / nd / nd | 2 of 9 (3.76) |
| 15 | KSSQSVLYESRNKNSVA | WASSREC | QQYHRLPGS | 2.94 / 1.94 / 2.25 | 1 of 9 (3.92) |
| 16 | KSSQSVLYERRNKNCVA | WASTRES | QQYHRLPLS | nd / nd / nd | 1 of 9 (3.59) |
| 17 | KSSQCVLYESRNKNSVA | KASTRES | QQYHRLPLS | 0.87 / 1.59 / 1.33 | 0 of 9 |
| 18 | HSSQSVLYESRNKNSVA | WASTRWS | QQYHRLRLS | 3.36 / 2.57 / 1.57 | 0 of 9 |
| 19 | KSSISVIYESRNKNSVC | WASTRES | QQYHRLPLS | 4.20 / 3.75 / nd | 2 of 9 (3.62) |
| 20 | KSSPSFLYESRNKNSVA | WASTRWS | QQYHRLPLS | 0.93 / 1.17 / 1.00 | 3 of 9 (3.89) |
| 21 | KSSQSVLYESRSKNSVA | WASTRED | QQYHRLPPS | nd / 3.53 / nd | 1 of 9 (3.86) |
| 22 | KMSQSVLYESRNKNMVA | WASTRES | QQYHRGPLS | 1.94 / 1.97 / 2.42 | 1 of 9 (3.90) |
| 23 | KSSQSVLYESRNKNSVA | WASTQES | QQHHRLPLS | nd / nd / nd | 1 of 9 (2.16) |
| 24 | KSSQSVLYEYANKNSVA | WASTRES | QQYHRLPLP | nd / nd / nd | 1 of 9 (2.26) |
| 25 | KSSQSVLYESRNKNSVA | MASTRPS | QNYHRLPLS | 1.23 / 1.13 / 1.16 | 1 of 9 (4.98) |
| 26 | KSSQSVLYFSRNKNSVA | WASTEES | QQFHRLPLS | nd / nd / nd | 2 of 9 (5.04) |
| 27 | KVQQSVLYESRNKNSVA | WASHRES | QQYHRLPLS | -0.20 / 0.10 / -0.02 | 1 of 9 (4.53) |
| 28 | KSSQTVLYESRNKNSVA | LANTRES | QQYHRLPLS | 3.08 / 2.57 / 2.57 | 2 of 9 (4.75) |
| 29 | KSSQSVLYGSRYKNSVA | WASTRES | QQYHRLPLI | 1.18 / 1.31 / 1.26 | 3 of 9 (4.43) |
| 30 | KSSQSVLYESRPKNSEA | WASTRES | QQAHRLPLS | nd / nd / nd | 0 of 9 |
| 31 | KSSQSVLYESRWKASVY | WASTRES | QQYHRLPLS | nd / nd / nd | 0 of 9 |
| 32 | WKSQSVLYEHRNKNSVA | WASTRES | QQYHRLPLS | nd / nd / nd | 0 of 9 |
| 33 | KSSQSVLYESRNKNSVA | WAVTRES | QQYHRLPLS | 3.20 / nd / 2.75 | 1 of 9 (3.92) |
| 34 | KSSQSVLYEGRPKNSVA | WASTRES | QLYHRLPLS | nd / 2.66 / 2.71 | 3 of 9 (3.63) |
| 35 | KSSQSVLYEMRNKNSVA | WASTRES | QQYHRLPLS | 1.41 / 1.47 / 1.42 | 0 of 9 |
| 36 | KSSQSVLYESRNKNSVV | WASNRES | QQYHRLPAS | nd / 5.01 / nd | 3 of 9 (3.96) |
| 37 | KSNQSVLYESRNKNKVA | WASTFES | QQYHRLPLS | nd / nd / nd | 2 of 9 (3.47) |
| 38 | KSSQSVLYNSRNCNSVA | LASTRES | QQYHRLPLS | 1.79 / 1.70 / 2.08 | 3 of 9 (5.02) |
| 39 | KYSQSYLYESRNKNSVA | RASTRES | QQYHRLPLS | 0.24 / 0.29 / 0.24 | 0 of 9 |
| 40 | KSSQSVLYESRNKNSRA | WASTRES | CQYHRLPCS | nd / nd / nd | 1 of 9 (5.38) |
| 41 | KSSQPVNYESRNKNSVA | WASTRES | QQYKRLPLS | 2.56 / 2.58 / 3.05 | 1 of 9 (3.60) |
| 42 | KDSQSVLYESRNKNSVA | WASTDES | QQYHRLWLS | nd / nd / nd | 0 of 9 |
| 43 | KESQSKLYESRNKNSVA | WASTMES | QQYHRLPLS | nd / nd / nd | 1 of 9 (4.91) |
| 44 | KSSQSVLYESRNKISVA | WASTPES | QQYHRLPLS | nd / nd / nd | 0 of 9 |
| 45 | KSSQDVLYESRRKNSVA | WANTRES | QQYHRLPLS | 1.31 / 1.36 / 1.23 | 1 of 9 (4.47) |
| 46 | KSMQSVLYESRNKNSVA | WASTRES | QEYHRRPLS | nd / nd / nd | 0 of 9 |
| 47 | KSSQSVLYESRNKNSVI | WASTRES | QQYELLPLS | nd / nd / nd | 1 of 9 (3.12) |
| 48 | ISSQSVSYESRNWNSVA | WASTRES | QQYHRLPLS | 1.23 / 1.40 / 1.43 | 4 of 9 (4.80) |
| 49 | KSSQSVLYESRNKNSVA | WASTRES | QQYHRKPIS | 0.95 / 0.84 / 0.70 | 1 of 9 (5.22) |
| 50 | KSSQSVLYESRMKNSVA | CASTRES | QQYDRLPLS | 1.65 / 1.82 / 1.80 | 2 of 9 (3.80) |
| 51 | ISSQSVLYESRNKNSVA | WASTMES | QQYSRLPLS | nd / 4.59 / 3.71 | 5 of 9 (3.97) |

The 7 strongest on average among those seen in every replicate, once more:

| CDR-L1 | CDR-L2 | CDR-L3 | log10 Kd, replicates | control signals |
|---|---|---|---|---|
| KSSQSVLYESRNKNSVA | GASTRES | QTYHRLPLS | -0.62 / -0.20 / -0.44 | 6 of 9 (4.41) |
| KVQQSVLYESRNKNSVA | WASHRES | QQYHRLPLS | -0.20 / 0.10 / -0.02 | 1 of 9 (4.53) |
| KYSQSYLYESRNKNSVA | RASTRES | QQYHRLPLS | 0.24 / 0.29 / 0.24 | 0 of 9 |
| KSSQSVLYESRNKNSIA | HASTREV | QQYHRLPLS | 0.40 / 0.70 / 0.60 | 0 of 9 |
| KSSQTVLYESQNKNSVA | WASTRES | QQYHRLPLS | 0.38 / 0.82 / 0.72 | 1 of 9 (4.47) |
| KSSGSVLYESENKNSVA | WASTRES | QQYHRIPLS | 0.65 / 0.82 / 0.81 | 1 of 9 (3.22) |
| KSSQSVLYKSRNNNSVA | HASTRES | QQYHRLPLS | 0.68 / 0.89 / 0.73 | 1 of 9 (4.18) |

Parent in this assay: reference entry 0.65, copy in this library 1.68. Empty control strains, which show no peptide, gave a signal in 18% of pairings with library AAYL50; the median was 4.19 and 95% of these signals were weaker than 2.99. No background was subtracted. The control count says in how many pairings with the empty strains this scFv gave a signal, with their mean in brackets.